Data published in US6608082B1, “Treatment of erectile dysfunction using isoquinoline compound melanocortin receptor ligands” (Lion Bioscience AG, priority 1998, dated 2003).

By UniProt entry, the sequences of proteins in these tests, tags left out.
UniProt P33032, whole entry: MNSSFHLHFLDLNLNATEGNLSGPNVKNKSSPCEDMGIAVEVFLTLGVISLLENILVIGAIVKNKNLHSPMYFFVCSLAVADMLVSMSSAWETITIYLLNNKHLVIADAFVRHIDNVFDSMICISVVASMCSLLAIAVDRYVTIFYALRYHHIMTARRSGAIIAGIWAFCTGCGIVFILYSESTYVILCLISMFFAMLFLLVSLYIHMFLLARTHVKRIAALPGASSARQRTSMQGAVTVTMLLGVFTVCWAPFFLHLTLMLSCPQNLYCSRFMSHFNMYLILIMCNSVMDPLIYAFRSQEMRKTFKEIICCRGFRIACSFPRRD

Biological target: MCR-5 (Homo sapiens, UniProt P33032)
Test: Melanocortin receptor binding assay, competition with 125I-HP 467, HEK 293 cells expressing hMCR-5
Details: read-out: MC-5 IC50; binding to MCR-5, HEK 293 cells
Text: All cell culture media and reagents were obtained from GibcoBRL (Gaithersburg Md.), except for COSMIC CALF SERUM (HyClone; Logan Utah). HEK-293 cell lines were transfected with the human MC receptors hMCR-1, hMCR-3, and hMCR-4 (Gantz et al., Biochem. Biophys. Res. Comm. 200:1214-1220 (1994); Gantz et al., J. Biol. Chem. 268:8246-8250 (1993); Gantz et al. J. Biol. Chem. 268:15174-15179 (1993); Haskell-Leuvano et al., Biochem. Biophys. Res. Comm. 204:1137-1142 (1994); each of which is incorporated herein by reference). […]
GF/B filter plates were prepared by soaking for at least one hour in 5 mg/ml BSA and 10 mM CaCl2. […] Filter plates were counted using a Packard Topcount (Packard Instrument Co.) and data analyzed using GraphPad PRISM v2.0 (GraphPad Software Inc.; San Diego Calif.) and Microsoft EXCEL v5.0a (Microsoft Corp.; Redmond Wash.).
To assay isoquinoline compounds, binding assays were performed in duplicate in a 96 well format. […] Cells were harvested on GF/B filter plates as described above and counted. […]

IC50: > 10 µM
SMILES: CCNc1ccc(C2C(CNCc3ccccc3O)c3ccccc3CN2CCCC[C@@H](CN)NC)cc1 (stereo partly shown)
